What was measured:
Conditions in all cases: pH 7.4
[1] = target: T1, Kappa-type opioid receptor (Homo sapiens, UniProt P41145)
[2] = target: Kappa-type opioid receptor [D138A] (Homo sapiens, UniProt P41145, D138A)
[3] = target: T2, Kappa-type opioid receptor [D138N] (Homo sapiens, UniProt P41145, D138N)
[4] = target: T3, Kappa-type opioid receptor [E297A] (Homo sapiens, UniProt P41145, E297A)
[5] = target: T4, Kappa-type opioid receptor [H291A] (Homo sapiens, UniProt P41145, H291A)
[6] = target: T5, Kappa-type opioid receptor [H291F] (Homo sapiens, UniProt P41145, H291F)
[7] = target: T6, Kappa-type opioid receptor [I135A] (Homo sapiens, UniProt P41145, I135A)
[8] = target: T7, Kappa-type opioid receptor [I294A] (Homo sapiens, UniProt P41145, I294A)
[9] = target: T8, Kappa-type opioid receptor [I316A] (Homo sapiens, UniProt P41145, I316A)
[10] = target: T9, Kappa-type opioid receptor [K200A] (Homo sapiens, UniProt P41145, K200A)
[11] = target: T10, Kappa-type opioid receptor [K212A] (Homo sapiens, UniProt P41145, K212A)
[12] = target: T11, Kappa-type opioid receptor [K227A] (Homo sapiens, UniProt P41145, K227A)
[13] = target: T12, Kappa-type opioid receptor [M142A] (Homo sapiens, UniProt P41145, M142A)
[14] = target: T13, Kappa-type opioid receptor [M226A] (Homo sapiens, UniProt P41145, M226A)
[15] = target: T14, Kappa-type opioid receptor [Q115A] (Homo sapiens, UniProt P41145, Q115A)
[16] = target: T15, Kappa-type opioid receptor [Y119A] (Homo sapiens, UniProt P41145, Y119A)
[17] = target: T16, Kappa-type opioid receptor [Y119F] (Homo sapiens, UniProt P41145, Y119F)
[18] = target: T17, Kappa-type opioid receptor [Y139A] (Homo sapiens, UniProt P41145, Y139A)
[19] = target: T18, Kappa-type opioid receptor [Y139F] (Homo sapiens, UniProt P41145, Y139F)
[20] = target: T19, Kappa-type opioid receptor [Y312A] (Homo sapiens, UniProt P41145, Y312A)
[21] = target: T20, Kappa-type opioid receptor [Y312F] (Homo sapiens, UniProt P41145, Y312F)
[22] = target: T21, Kappa-type opioid receptor [Y313A] (Homo sapiens, UniProt P41145, Y313A)
[23] = target: T22, Kappa-type opioid receptor [Y313F] (Homo sapiens, UniProt P41145, Y313F)
[24] = target: Kappa-type opioid receptor [Y320A] (Homo sapiens, UniProt P41145, Y320A)
[25] = target: T23, Kappa-type opioid receptor [Y320F] (Homo sapiens, UniProt P41145, Y320F)
[26] = target: T24, Kappa-type opioid receptor [Y66A] (Homo sapiens, UniProt P41145, Y66A)
[27] = target: T1, Kappa-type opioid receptor; remark: listed apart in the source
[28] = target: T2, Kappa-type opioid receptor [D138N]; remark: listed apart in the source
[29] = target: T3, Kappa-type opioid receptor [E297A]; remark: listed apart in the source
[30] = target: T4, Kappa-type opioid receptor [H291A]; remark: listed apart in the source
[31] = target: T5, Kappa-type opioid receptor [H291F]; remark: listed apart in the source
[32] = target: T6, Kappa-type opioid receptor [I135A]; remark: listed apart in the source
[33] = target: T7, Kappa-type opioid receptor [I294A]; remark: listed apart in the source
[34] = target: T8, Kappa-type opioid receptor [I316A]; remark: listed apart in the source
[35] = target: T9, Kappa-type opioid receptor [K200A]; remark: listed apart in the source
[36] = target: T10, Kappa-type opioid receptor [K212A]; remark: listed apart in the source
[37] = target: T11, Kappa-type opioid receptor [K227A]; remark: listed apart in the source
[38] = target: T12, Kappa-type opioid receptor [M142A]; remark: listed apart in the source
[39] = target: T13, Kappa-type opioid receptor [M226A]; remark: listed apart in the source
[40] = target: T14, Kappa-type opioid receptor [Q115A]; remark: listed apart in the source
[41] = target: T15, Kappa-type opioid receptor [Y119A]; remark: listed apart in the source
[42] = target: T16, Kappa-type opioid receptor [Y119F]; remark: listed apart in the source
[43] = target: T17, Kappa-type opioid receptor [Y139A]; remark: listed apart in the source
[44] = target: T18, Kappa-type opioid receptor [Y139F]; remark: listed apart in the source
[45] = target: T19, Kappa-type opioid receptor [Y312A]; remark: listed apart in the source
[46] = target: T20, Kappa-type opioid receptor [Y312F]; remark: listed apart in the source
[47] = target: T21, Kappa-type opioid receptor [Y313A]; remark: listed apart in the source
[48] = target: T22, Kappa-type opioid receptor [Y313F]; remark: listed apart in the source
[49] = target: T23, Kappa-type opioid receptor [Y320F]; remark: listed apart in the source
[50] = target: T24, Kappa-type opioid receptor [Y66A]; remark: listed apart in the source

Chains of the proteins cited; added tags and fusions are not shown.
UniProt P41145, whole entry D138A, looked up: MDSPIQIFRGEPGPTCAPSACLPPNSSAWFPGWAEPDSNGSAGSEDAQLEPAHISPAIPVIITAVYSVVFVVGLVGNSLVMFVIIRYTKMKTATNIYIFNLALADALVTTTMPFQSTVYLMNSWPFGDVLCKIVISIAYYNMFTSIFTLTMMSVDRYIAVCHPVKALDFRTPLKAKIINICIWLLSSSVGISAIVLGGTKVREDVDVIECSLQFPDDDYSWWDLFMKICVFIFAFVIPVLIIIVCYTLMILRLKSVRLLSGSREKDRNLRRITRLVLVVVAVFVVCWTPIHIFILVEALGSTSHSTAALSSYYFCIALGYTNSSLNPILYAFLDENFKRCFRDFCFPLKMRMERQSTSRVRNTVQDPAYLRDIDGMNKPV
UniProt P41145, whole entry D138N, looked up: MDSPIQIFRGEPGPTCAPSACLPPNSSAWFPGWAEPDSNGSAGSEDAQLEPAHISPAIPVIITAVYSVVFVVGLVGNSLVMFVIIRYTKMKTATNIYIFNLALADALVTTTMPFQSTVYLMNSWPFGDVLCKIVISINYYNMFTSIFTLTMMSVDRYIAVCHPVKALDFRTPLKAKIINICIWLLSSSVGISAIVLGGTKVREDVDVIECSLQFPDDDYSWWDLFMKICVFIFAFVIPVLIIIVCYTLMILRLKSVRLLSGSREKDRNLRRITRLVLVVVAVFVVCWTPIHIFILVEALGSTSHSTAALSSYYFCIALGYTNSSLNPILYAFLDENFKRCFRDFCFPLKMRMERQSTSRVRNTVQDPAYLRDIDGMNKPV
UniProt P41145, whole entry E297A, looked up: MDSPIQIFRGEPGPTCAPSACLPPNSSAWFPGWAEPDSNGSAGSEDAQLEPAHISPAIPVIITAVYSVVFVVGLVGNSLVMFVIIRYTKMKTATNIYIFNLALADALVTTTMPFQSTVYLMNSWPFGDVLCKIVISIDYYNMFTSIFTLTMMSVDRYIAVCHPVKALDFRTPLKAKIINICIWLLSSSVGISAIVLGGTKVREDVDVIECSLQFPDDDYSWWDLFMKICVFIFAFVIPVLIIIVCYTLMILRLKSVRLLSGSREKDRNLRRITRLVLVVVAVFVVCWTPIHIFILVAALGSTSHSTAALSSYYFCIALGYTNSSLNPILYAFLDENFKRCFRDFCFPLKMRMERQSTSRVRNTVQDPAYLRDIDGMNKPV
UniProt P41145, whole entry H291A, looked up: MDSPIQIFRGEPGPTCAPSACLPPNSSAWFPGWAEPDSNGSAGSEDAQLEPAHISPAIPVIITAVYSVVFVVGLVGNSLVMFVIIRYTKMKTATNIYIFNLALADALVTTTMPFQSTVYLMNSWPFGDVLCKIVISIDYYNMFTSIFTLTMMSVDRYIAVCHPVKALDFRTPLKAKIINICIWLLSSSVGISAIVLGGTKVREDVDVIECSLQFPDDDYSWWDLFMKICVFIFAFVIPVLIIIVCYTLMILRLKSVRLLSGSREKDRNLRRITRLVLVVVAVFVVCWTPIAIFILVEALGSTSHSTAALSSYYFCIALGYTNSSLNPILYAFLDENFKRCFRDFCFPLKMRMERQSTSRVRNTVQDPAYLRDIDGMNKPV
UniProt P41145, whole entry H291F, looked up: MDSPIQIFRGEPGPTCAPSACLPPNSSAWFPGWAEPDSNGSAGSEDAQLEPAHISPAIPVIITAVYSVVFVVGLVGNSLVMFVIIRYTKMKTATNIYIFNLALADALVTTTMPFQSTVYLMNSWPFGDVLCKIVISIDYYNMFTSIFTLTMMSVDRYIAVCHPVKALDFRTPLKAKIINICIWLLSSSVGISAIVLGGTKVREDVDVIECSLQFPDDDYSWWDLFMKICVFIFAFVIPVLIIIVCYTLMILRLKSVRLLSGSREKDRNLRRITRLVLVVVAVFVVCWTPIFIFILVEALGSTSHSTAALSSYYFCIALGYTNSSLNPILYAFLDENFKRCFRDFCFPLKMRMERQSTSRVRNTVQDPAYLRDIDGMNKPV
UniProt P41145, whole entry I135A, looked up: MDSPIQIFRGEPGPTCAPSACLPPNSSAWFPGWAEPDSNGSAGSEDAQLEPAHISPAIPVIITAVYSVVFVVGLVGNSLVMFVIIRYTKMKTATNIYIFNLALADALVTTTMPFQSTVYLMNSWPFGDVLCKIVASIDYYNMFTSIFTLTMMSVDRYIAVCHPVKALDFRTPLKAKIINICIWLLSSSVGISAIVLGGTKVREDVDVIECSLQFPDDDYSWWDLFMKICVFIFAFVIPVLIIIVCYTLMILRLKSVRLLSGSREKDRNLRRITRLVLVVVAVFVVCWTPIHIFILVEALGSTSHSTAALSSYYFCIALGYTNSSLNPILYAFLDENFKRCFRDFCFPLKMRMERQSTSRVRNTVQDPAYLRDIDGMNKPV
UniProt P41145, whole entry I294A, looked up: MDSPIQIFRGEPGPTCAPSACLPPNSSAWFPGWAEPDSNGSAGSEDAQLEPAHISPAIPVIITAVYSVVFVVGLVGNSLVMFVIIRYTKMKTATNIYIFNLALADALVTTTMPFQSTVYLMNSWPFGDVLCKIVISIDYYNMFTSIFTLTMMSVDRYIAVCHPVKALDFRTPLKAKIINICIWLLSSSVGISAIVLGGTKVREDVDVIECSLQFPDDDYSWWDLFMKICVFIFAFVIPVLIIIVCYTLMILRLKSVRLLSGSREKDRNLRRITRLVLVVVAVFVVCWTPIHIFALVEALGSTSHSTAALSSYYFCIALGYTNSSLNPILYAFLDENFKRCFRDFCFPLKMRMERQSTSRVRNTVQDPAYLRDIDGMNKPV
UniProt P41145, whole entry I316A, looked up: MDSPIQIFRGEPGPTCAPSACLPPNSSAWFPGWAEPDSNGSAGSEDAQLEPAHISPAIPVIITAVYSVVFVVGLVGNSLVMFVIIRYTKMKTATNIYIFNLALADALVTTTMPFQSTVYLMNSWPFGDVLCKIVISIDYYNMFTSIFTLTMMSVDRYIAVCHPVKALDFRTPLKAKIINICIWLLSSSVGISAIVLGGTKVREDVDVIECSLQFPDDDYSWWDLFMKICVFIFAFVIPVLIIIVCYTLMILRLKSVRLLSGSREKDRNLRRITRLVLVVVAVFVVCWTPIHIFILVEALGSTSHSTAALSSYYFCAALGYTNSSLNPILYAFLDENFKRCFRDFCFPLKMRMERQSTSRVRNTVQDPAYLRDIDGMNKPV
UniProt P41145, whole entry K200A, looked up: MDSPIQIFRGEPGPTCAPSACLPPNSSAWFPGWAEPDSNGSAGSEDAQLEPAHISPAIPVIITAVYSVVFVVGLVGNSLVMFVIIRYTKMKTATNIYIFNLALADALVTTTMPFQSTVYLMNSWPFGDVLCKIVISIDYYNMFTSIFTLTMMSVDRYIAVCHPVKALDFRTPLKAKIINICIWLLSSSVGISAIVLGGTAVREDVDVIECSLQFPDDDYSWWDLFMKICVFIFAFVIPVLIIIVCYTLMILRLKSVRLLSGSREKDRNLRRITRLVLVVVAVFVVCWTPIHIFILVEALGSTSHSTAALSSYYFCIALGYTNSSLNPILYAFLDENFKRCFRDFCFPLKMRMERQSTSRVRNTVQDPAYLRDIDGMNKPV
UniProt P41145, whole entry L212A: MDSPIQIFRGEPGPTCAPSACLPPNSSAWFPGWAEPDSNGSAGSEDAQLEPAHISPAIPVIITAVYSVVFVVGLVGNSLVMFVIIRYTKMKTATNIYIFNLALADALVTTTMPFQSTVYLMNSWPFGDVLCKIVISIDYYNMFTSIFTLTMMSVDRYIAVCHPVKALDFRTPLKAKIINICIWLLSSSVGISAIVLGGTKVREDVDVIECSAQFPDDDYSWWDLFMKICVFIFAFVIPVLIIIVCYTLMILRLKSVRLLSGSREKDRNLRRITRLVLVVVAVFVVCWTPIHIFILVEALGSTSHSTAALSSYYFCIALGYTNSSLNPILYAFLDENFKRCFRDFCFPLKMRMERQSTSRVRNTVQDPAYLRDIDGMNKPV
UniProt P41145, whole entry K227A, looked up: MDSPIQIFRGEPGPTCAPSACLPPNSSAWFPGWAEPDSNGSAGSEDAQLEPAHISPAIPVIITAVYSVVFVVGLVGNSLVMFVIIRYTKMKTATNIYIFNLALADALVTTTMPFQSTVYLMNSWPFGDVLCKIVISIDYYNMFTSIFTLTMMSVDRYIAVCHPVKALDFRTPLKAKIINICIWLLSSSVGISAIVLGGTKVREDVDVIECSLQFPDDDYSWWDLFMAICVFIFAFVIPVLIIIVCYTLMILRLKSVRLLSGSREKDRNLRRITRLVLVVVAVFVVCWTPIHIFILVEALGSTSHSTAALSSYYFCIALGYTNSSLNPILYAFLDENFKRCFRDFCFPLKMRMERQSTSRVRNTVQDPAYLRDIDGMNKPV
UniProt P41145, whole entry M142A, looked up: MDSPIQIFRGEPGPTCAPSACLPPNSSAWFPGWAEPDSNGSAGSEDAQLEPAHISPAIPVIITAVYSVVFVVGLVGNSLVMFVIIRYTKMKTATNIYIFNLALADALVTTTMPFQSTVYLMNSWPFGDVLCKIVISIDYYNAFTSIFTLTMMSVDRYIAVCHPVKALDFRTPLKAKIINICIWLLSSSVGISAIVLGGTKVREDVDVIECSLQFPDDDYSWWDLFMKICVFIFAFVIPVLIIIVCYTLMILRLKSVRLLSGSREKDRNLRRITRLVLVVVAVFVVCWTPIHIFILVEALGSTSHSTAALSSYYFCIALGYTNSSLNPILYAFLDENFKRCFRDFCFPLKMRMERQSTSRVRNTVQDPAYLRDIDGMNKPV
UniProt P41145, whole entry M226A, looked up: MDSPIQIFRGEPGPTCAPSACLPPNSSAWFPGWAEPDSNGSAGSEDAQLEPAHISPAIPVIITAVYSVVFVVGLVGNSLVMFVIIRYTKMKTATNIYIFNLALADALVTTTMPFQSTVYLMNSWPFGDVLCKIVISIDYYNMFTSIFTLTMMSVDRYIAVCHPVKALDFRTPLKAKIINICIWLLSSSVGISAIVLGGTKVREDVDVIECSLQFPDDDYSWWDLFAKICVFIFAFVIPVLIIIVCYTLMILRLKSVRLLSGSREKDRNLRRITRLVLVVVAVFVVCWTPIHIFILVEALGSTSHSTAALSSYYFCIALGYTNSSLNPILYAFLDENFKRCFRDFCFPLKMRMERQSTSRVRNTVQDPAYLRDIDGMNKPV
UniProt P41145, whole entry Q115A, looked up: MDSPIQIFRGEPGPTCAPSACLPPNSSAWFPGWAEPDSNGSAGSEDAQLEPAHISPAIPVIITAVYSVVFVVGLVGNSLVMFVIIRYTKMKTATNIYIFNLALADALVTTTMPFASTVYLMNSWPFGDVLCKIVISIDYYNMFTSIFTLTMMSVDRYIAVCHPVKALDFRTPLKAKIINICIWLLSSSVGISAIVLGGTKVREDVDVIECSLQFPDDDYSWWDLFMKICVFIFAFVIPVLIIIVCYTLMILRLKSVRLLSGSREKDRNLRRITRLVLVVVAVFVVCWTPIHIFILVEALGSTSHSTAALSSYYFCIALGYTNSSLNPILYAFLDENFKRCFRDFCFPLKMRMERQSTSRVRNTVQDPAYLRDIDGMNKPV
UniProt P41145, whole entry Y119A, looked up: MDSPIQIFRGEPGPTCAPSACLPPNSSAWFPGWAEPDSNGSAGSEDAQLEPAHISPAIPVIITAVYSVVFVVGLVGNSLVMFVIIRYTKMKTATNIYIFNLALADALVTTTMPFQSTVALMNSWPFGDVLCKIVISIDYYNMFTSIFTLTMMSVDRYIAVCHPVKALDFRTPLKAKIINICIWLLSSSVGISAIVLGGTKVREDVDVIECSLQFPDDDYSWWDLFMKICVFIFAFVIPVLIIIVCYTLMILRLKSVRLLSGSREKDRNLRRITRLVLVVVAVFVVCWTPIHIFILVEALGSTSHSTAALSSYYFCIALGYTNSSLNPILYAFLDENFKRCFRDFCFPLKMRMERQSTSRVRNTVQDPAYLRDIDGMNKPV
UniProt P41145, whole entry Y119F, looked up: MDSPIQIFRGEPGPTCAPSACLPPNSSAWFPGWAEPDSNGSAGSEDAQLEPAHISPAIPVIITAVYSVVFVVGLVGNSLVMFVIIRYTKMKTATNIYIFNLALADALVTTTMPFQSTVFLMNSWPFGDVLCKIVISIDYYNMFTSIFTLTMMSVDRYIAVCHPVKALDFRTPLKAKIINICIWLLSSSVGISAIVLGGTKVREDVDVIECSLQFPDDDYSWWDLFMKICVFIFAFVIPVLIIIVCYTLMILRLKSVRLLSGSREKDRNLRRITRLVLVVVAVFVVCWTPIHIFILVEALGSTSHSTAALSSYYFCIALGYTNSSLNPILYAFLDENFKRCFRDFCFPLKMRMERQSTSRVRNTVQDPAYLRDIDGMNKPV
UniProt P41145, whole entry Y139A, looked up: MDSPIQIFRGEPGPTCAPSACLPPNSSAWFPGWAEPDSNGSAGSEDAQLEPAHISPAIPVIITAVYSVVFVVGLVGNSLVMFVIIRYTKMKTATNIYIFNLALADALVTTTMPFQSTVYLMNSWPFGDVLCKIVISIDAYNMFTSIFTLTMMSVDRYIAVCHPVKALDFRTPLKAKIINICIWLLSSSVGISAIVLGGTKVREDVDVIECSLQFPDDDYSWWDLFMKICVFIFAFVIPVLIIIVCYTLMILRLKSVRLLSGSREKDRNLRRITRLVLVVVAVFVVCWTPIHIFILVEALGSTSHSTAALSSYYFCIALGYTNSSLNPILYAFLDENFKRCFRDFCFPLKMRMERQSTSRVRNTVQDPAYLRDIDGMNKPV

O=C(Nc1ccc(Cl)c(C(F)(F)F)c1)[C@H]1CC=C[C@H]2CCN(Cc3ccccc3)C(=O)[C@@H]12 [1xx]
Ki [1]: 220 nM | Ki [2]: 30 nM | Ki [3]: 4 nM | Ki [4]: 110 nM | Ki [5]: 390 nM | Ki [6]: 65 nM | Ki [7]: 220 nM | Ki [8]: 480 nM | Ki [9]: 890 nM | Ki [10]: 180 nM | Ki [11]: 100 nM | Ki [12]: 51 nM | Ki [13]: 20 nM | Ki [14]: 180 nM | Ki [15]: 580 nM | Ki [16]: 5500 nM | Ki [17]: 520 nM | Ki [18]: 350 nM | Ki [19]: 300 nM | Ki [20]: 390 nM | Ki [21]: 340 nM | Ki [22]: 2200 nM | Ki [23]: 510 nM | Ki [24]: 4200 nM | Ki [25]: 470 nM | Ki [26]: 550 nM | EC50 [27]: 51 nM | EC50 [28]: 9.1 nM | EC50 [29]: 65 nM | EC50 [30]: 890 nM | EC50 [31]: 230 nM | EC50 [32]: 1700 nM | EC50 [33]: 350 nM | EC50 [34]: 400 nM | EC50 [35]: 80 nM | EC50 [36]: 1300 nM | EC50 [37]: 220 nM | EC50 [38]: 28 nM | EC50 [39]: 43 nM | EC50 [40]: 72 nM | EC50 [41]: 590 nM | EC50 [42]: 140 nM | EC50 [43]: 400 nM | EC50 [44]: 140 nM | EC50 [45]: 360 nM | EC50 [46]: 71 nM | EC50 [47]: 320 nM | EC50 [48]: 58 nM | EC50 [49]: 300 nM | EC50 [50]: 150 nM

Source: BindingDB's records for 24121503 (University of North Carolina, 2013)
